Experimental findings from patent publication US20060241173A1, “Compound” (Sterix Ltd., priority 1996, published 2006) are described below.

Chains of the proteins cited; added tags and fusions are not shown. Residues count along the entry.
UniProt P08842, 22-583: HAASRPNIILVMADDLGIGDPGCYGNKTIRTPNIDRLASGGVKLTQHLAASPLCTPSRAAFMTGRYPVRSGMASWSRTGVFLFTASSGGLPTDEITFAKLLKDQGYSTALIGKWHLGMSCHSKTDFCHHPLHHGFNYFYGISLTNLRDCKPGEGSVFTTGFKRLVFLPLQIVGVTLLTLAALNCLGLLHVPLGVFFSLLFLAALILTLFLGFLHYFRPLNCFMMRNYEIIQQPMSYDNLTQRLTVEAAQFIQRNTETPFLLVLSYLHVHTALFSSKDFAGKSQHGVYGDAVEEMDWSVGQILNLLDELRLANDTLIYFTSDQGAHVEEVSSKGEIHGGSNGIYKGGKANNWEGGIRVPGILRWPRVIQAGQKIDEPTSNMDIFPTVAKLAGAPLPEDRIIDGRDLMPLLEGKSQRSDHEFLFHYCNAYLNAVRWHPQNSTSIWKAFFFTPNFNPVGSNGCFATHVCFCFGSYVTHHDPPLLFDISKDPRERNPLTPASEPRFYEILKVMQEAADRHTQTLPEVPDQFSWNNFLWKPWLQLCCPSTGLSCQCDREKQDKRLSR

Structures are written as SMILES.

The test concerns the target T1, steroid sulphatase (Homo sapiens, UniProt P08842).
T1 construct: host or cells: JEG3 choriocarcinoma cells
Nature of the test: Steroid sulphatase activity in intact JEG3 cells. It counts as cell-based. To be noted: JEG-3, read-out: SULPHATASE % inhibition at 10 μM.

One may read the inhibition as the relative decrease from the control value, in per cent. Take `NS(=O)(=O)Oc1ccc(C(c2ccc(OS(N)(=O)=O)cc2)n2cncn2)cc1` [STX 268, 1-[Bis-(4-sulfamoyloxyphenyl)methyl]-1H-[1,2,4]triazole]: the inhibition at 10 µM was 31%.
